# From US20240342161A1, “BISBENZYLISOQUINOLINES AS CONDITIONING AGENTS FOR IMMUNE THERAPY” (priority 2023, published 2024)
# pIC50: −log10 of the molar value. Read-outs that look alike come from different tables or passages of the source.
# What was measured:
# [1] = system: human chronic myeloid leukemia (CML) progenitors; conditions: colony number, methylcellulose-based medium
# [2] = system: human breast, colon carcinoma, and hepatoma cell lines; conditions: read-out: IC50 range; cited from earlier work
# beta-Actin = beta-Actin level in K562 cell extracts by western blot; conditions: K562 cells treated with up to 40 uM
# CAMKII gamma = CAMKII gamma (Homo sapiens, UniProt Q13555); test: CAMKII gamma kinase activity (ADP Glo); type: biochemical; conditions: 10 uM ATP, inhibitor 250 uM
# [3] = IV, cited from earlier work
# [4] = system: human colorectal (HCT116) cells; conditions: cited from earlier work
# [5] = system: CML colonies, secondary clonal growth; conditions: colonies from original cultures with ES-3000 @ 10 μM
# [6] = system: colorectal (CT-26) mouse xenografts; conditions: cited from earlier work
# bcr-abl = conditions: 10 μM; for abl only / bcr-abl and abl colonies / bcr-abl only / both negative: number of colonies
# β-catenin = β-catenin protein level in K562 cell extracts by western blot; conditions: K562 cells treated with >10 uM
# [7] = cited from earlier work
# [8] = Primary colonies, of 17 analysed
# [9] = Secondary colonies, of 10 analysed
structure (smiles),measurement,setting,value
COc1ccc2cc1Oc1ccc(cc1)C[C@H]1c3cc(c(OC)cc3CCN1C)Oc1c(OC)c(OC)cc3c1[C@H](C2)N(C)CC3,BFU-E,[1]; 0.1 μM,22 ± 4
same,CFU-E,[1]; 0.1 μM,11 ± 1
same,CFU-GM,[1]; 0.1 μM,55 ± 5
same,Total CFC,[1]; 0.1 μM,88 ± 8
same,Total Erythroid,[1]; 0.1 μM,33 ± 3
same,BFU-E,[1]; 1 μM,22 ± 4
same,CFU-E,[1]; 1 μM,10 ± 2
same,CFU-GM,[1]; 1 μM,54 ± 2
same,Total CFC,[1]; 1 μM,86 ± 4
same,Total Erythroid,[1]; 1 μM,33 ± 3
same,BFU-E,[1]; 3 μM,14 ± 3
same,CFU-E,[1]; 3 μM,9 ± 2
same,CFU-GM,[1]; 3 μM,52 ± 5
same,Total CFC,[1]; 3 μM,75 ± 6
same,Total Erythroid,[1]; 3 μM,23 ± 2
same,CFU-GM,[1]; 10 μM,26 ·
same,Total CFC,[1]; 10 μM,26 ···
same,pIC50,[2],4.98 to 5.82
same,beta-Actin level (quantitation of protein bands),beta-Actin,not affected significantly
same,% DMSO,CAMKII gamma,9%
same,recommended dose for a Phase II study,"[3]; daily×5, repeated every 2 weeks",200 mg/m2
same,recommended dose for a Phase II study,[3]; single dose repeated weekly,300 mg/m2
same,wnt/β-catenin signaling and tumor growth,[4],inhibit wnt/β-catenin signaling and tumor growth
same,average CFC per well,[5],three
same,wells supported secondary growth with one or more colony,[5],54.2%
same,tumor growth,[6],reduced tumor growth by inducing apoptosis
same,abl only,bcr-abl; Primary colonies,1
same,bcr-abl and abl colonies,bcr-abl; Primary colonies,11
same,bcr-abl only,bcr-abl; Primary colonies,1
same,both negative,bcr-abl; Primary colonies,4
same,colonies abl positive only,bcr-abl; [8],5.8%
same,colonies bcr-abl and abl positive,bcr-abl; [8],65%
same,colonies bcr-abl positive only,bcr-abl; [8],5.8
same,colonies negative for both targets,bcr-abl; [8],23.5%
same,colonies bcr-abl and abl positive,"bcr-abl; Primary colonies, of 17 analysed, listed as Tetrandrine",64.7%
same,abl only,bcr-abl; Secondary colonies,1
same,bcr-abl and abl colonies,bcr-abl; Secondary colonies,0
same,bcr-abl only,bcr-abl; Secondary colonies,0
same,both negative,bcr-abl; Secondary colonies,9
same,colonies negative for both bcr-abl and abl,bcr-abl; [9],90%
same,colonies positive for abl only,bcr-abl; [9],10%
same,beta-catenin level (quantitation of protein bands),β-catenin,significantly less
same,protein binding,[7],highly protein bound
